From ChEMBL document CHEMBL1152222, “Effect of B-ring substitution pattern on binding mode of propionamide selective androgen receptor modulators” (Bioorg Med Chem Lett, 2008) come the findings set out here.

This assay has as its target T1, Androgen receptor (Rattus norvegicus, UniProt P15207).
T1 sequence (P15207 whole entry): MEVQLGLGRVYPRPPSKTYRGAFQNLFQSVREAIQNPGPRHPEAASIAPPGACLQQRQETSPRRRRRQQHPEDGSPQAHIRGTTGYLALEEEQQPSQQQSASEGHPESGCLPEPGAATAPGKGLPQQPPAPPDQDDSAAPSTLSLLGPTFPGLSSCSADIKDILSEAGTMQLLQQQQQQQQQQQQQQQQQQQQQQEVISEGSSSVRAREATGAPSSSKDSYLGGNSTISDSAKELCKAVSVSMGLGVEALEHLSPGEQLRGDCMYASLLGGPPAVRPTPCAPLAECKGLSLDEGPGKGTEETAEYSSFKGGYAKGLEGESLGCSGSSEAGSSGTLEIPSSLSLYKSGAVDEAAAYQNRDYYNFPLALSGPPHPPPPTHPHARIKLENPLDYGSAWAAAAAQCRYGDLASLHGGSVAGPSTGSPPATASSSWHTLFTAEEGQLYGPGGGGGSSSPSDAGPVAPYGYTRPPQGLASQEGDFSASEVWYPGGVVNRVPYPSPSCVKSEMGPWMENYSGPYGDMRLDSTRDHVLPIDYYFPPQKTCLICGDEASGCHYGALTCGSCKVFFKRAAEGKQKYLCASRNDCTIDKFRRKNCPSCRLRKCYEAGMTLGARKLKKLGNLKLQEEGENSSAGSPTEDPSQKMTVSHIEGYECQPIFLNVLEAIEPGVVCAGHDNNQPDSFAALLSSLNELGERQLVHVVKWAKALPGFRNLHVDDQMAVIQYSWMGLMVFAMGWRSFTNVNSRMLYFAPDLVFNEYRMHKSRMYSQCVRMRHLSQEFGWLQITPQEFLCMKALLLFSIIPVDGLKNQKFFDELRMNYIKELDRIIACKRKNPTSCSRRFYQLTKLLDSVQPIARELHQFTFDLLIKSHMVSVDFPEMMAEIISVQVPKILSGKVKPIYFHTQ

Broadly, the Ki is a measure of affinity in units of concentration, obtained from inhibition or displacement. Read a low Ki as higher affinity. The compound `CC(=O)Nc1ccc(OC[C@@](C)(O)C(=O)Nc2ccc([N+](=O)[O-])c(C(F)(F)F)c2)cc1` had a Ki of 4 nM.
